SMILES strings stand for the structures.

The chains behind the UniProt entries cited, without tags or fusion partners. Residues count along the entry.
UniProt Q04771, 21-509: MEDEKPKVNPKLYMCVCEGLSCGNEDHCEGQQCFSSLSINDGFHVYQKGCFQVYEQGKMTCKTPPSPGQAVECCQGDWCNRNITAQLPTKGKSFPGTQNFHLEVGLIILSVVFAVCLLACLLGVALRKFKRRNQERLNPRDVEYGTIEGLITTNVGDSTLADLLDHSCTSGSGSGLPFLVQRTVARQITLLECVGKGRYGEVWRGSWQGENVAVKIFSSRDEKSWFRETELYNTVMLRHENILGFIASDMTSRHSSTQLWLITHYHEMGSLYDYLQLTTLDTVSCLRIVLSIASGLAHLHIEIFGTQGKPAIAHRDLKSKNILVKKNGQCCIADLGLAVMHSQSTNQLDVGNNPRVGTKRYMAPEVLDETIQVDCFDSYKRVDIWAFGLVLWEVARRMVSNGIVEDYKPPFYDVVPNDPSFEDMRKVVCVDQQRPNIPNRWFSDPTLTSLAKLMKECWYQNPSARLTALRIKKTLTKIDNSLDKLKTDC

One test deals with human ALK2 (Homo sapiens (Human), UniProt Q04771). The experiment in a line: LANCE Ultra ULight enzymatic assay (FOP Enzymatic Assay), ALK2. In kind it is biochemical. Particulars: read-out: ALK2 IC50 (nM) at 10 μM ATP. A general note: TR-FRET usually uses a lanthanide donor and a delayed reading to cut background.
For test [1], the system named is BMP signaling activity (BRE-Luc, C2C12 myofibroblasts cells). Nature of the test: Cell luciferase assay, BMP (C2C12 BRE-Luc, BMP6 ligand). The note with it: Mus musculus, BMP6 50 ng/mL, read-out: Cellular Assay IC50 (nM) BMP. The test is classed as cell-based.
Test [2] relates to TGF-β signaling activity (CAGA-Luc, human embryonic kidney 293T cells). The experiment in a line: Cell luciferase assay, TGFβ (293T CAGA-Luc, TGF-β1 ligand). Particulars: HEK-293T, read-out: Cellular Assay IC50 (nM) TGFβ.

As for `Cc1cc(-c2cnn3cc(-c4ccc(N5CCNCC5)cc4)cnc23)c2ccccc2n1` [Compound 10, 2-methyl-4-(6-(4-(piperazin-1-yl)phenyl)pyrazolo[1,5-a]pyrimidin-3-yl)quinoline], the half-maximal inhibitory concentration (IC50) at human ALK2 amounted to 23 nM. Take `Cc1ccc2c(-c3cnn4cc(-c5ccc(OCCN6CCCCC6)cn5)cnc34)cccc2n1` [Compound 48′, 2-methyl-5-(6-(5-(2-(piperidin-1-yl)ethoxy)pyridin-2-yl)pyrazolo[1,5-a]pyrimidin-3-yl)quinoline]: the IC50 worked out at 587 nM in test [1] and 1140 nM in test [2].

In the case of `Cc1ccc2c(-c3cnn4cc(-c5ccc(O[C@@H]6CCNC6)cn5)cnc34)cccc2n1` [Compound 64, (R)-2-methyl-5-(6-(5-(pyrrolidin-3-yloxy)pyridin-2-yl)pyrazolo[1,5-a]pyrimidin-3-yl)quinoline], the IC50 in test [2] is 559 nM. Still for that read-out and setting: for `[2H]c1ccc2c(-c3cnn4cc(-c5ccc(O[C@H]6CCNC6)cn5)cnc34)cccc2n1` [Compound 65, (S)-5-(6-(5-(pyrrolidin-3-yloxy)pyridin-2-yl)pyrazolo[1,5-a]pyrimidin-3-yl)-2-^2H-quinoline] the value was 3070 nM; for `Cc1ccc2c(-c3cnn4cc(-c5ccc(O[C@H]6CCNC6)cn5)cnc34)cccc2n1` [Compound 66, (S)-2-methyl-5-(6-(5-(pyrrolidin-3-yloxy)pyridin-2-yl)pyrazolo[1,5-a]pyrimidin-3-yl)quinoline], 583 nM. Regarding `COc1ccc2c(-c3cnn4cc(-c5ccc(N6[C@H](C)CNC[C@@H]6C)cc5)cnc34)cccc2n1` [Compound 67, 5-(6-(4-((2S,6R)-2,6-dimethylpiperazin-1-yl)phenyl)pyrazolo[1,5-a]pyrimidin-3-yl)-2-methoxyquinoline], in test [2], the IC50 was 2800 nM. Same read-out and setting: for `C[C@@H]1CNC[C@H](C)N1c1ccc(-c2cnc3c(-c4cccc5[nH]c(=O)ccc45)cnn3c2)cc1` [Compound 68, 5-(6-(4-((2S,6R)-2,6-dimethylpiperazin-1-yl)phenyl)pyrazolo[1,5-a]pyrimidin-3-yl)quinolin-2(1H)-one] the value was 5380 nM. Turning to `c1ccc2c(-c3cnn4cc(-c5ccc(N6CCNCC6)nc5)cnc34)ccnc2c1` [compound 1, 4-(6-(6-(piperazin-1-yl)pyridin-3-yl)pyrazolo[1,5-a]pyrimidin-3-yl)quinoline], the half-maximal inhibitory concentration (IC50) in test [2] is 8170 nM. For the compound `Cc1cc(-c2cnn3cc(-c4ccc(N5CCNCC5)nc4)cnc23)c2ccccc2n1` [compound 12, 2-methyl-4-(6-(6-(piperazin-1-yl)pyridin-3-yl)pyrazolo[1,5-a]pyrimidin-3-yl)quinoline], the IC50 in test [2] turned out to be 463 nM. With `[2H]c1cc(-c2cnn3cc(-c4ccc(N5CCNCC5)nc4)cnc23)c2ccccc2n1` [compound 17, 4-(6-(6-(piperazin-1-yl)pyridin-3-yl)pyrazolo[1,5-a]pyrimidin-3-yl)quinoline], in test [2], the IC50 is 3450 nM. On the same count and under the same terms, for `[2H]c1ccc2c(-c3cnn4cc(-c5ccc(OCCN6CCNCC6)cn5)cnc34)cccc2n1` [compound 49, 5-(6-(5-(2-(piperazin-1-yl)ethoxy)pyridin-2-yl)pyrazolo[1,5-a]pyrimidin-3-yl)-2-^2H-quinoline] the value was 3210 nM.

By IC50 is commonly meant the concentration at which inhibition is half-maximal.

Values taken from US9682983B2, “BMP inhibitors and methods of use thereof” (THE BRIGHAM AND WOMEN'S HOSPITAL, INC., priority 2013, dated 2017).
